Test results: paper PMC7251022

The chains behind the UniProt entries cited, without tags or fusion partners.
UniProt P11169, whole entry: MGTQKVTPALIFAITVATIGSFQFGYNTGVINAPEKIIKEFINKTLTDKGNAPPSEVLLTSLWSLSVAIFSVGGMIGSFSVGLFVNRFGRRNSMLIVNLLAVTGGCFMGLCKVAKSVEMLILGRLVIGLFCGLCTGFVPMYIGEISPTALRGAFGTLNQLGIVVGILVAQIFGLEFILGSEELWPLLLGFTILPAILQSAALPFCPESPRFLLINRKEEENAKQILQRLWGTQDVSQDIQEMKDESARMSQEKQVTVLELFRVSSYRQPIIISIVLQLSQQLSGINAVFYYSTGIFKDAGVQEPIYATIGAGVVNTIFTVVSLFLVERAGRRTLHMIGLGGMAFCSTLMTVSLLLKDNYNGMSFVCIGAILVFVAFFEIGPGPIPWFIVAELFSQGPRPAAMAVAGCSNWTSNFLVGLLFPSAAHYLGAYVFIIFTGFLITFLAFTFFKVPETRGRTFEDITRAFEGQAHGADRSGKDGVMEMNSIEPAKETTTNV

Legend:
[1] = molecular target: GLUT3 (Homo sapiens, UniProt P11169); test: counterflow transport assay (protein concentration […])
[2] = molecular target: GLUT1 (Homo sapiens, UniProt P11166); test: D-[[…]-3H] glucose uptake in GLUT1-overexpressing CHO cells (CHO-G1)

Compound | IC50 [1] [nM] | IC50 [2] [nM]
COc1ccc(CC(=O)OC(CN2C(=O)c3ccccc3C2=O)CN2C(=O)NC(C)(c3ccc4c(c3)OCO4)C2=O)cc1OC (single isomer, unassigned) | 1660 | 
COc1ccc(CCC(=O)O[C@@H](CN2C(=O)c3ccccc3C2=O)CN2C(=O)NC(C)(c3ccc4c(c3)OCO4)C2=O)cc1OC (some centres unmarked) |  | 1430
